According to PubChem BioAssay (EPA / NIEHS):
“And” between values parts separate entries of the source, which are not always exact repeats. Identical values can stand only once. The list shows a part of the results, in another mix than the full data. Results filed as inconclusive are left out. Some structures have more than one record in an assay (separate samples or runs), and their calls can disagree. The source made the active and inactive calls. Rule for the calls: active = hit-call score of the fitted dose curve at least 0.9, where 1 is the maximum; inconclusive = response in the unintended direction; inactive = score below 0.9.

Protein sequences, listed by entry. Tags and fused reporters are not part of them. Lines headed by an entry give the natural chain unless they say otherwise; changes in a name come on top.
UniProt P08684, whole entry, looked up: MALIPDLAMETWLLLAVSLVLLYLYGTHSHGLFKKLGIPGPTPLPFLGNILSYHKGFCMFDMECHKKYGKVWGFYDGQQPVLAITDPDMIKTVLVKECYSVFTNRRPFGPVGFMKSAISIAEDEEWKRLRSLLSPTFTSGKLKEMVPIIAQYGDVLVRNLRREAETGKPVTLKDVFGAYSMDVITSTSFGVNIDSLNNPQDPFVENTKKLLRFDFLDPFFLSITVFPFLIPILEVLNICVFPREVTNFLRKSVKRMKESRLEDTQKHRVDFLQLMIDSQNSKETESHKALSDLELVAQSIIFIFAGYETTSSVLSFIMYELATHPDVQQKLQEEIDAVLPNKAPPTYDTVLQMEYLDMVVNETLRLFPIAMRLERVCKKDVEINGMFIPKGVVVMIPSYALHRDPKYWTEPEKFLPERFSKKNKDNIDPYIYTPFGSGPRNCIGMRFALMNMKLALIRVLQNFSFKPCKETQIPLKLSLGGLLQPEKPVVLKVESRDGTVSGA
UniProt Q9UNQ0: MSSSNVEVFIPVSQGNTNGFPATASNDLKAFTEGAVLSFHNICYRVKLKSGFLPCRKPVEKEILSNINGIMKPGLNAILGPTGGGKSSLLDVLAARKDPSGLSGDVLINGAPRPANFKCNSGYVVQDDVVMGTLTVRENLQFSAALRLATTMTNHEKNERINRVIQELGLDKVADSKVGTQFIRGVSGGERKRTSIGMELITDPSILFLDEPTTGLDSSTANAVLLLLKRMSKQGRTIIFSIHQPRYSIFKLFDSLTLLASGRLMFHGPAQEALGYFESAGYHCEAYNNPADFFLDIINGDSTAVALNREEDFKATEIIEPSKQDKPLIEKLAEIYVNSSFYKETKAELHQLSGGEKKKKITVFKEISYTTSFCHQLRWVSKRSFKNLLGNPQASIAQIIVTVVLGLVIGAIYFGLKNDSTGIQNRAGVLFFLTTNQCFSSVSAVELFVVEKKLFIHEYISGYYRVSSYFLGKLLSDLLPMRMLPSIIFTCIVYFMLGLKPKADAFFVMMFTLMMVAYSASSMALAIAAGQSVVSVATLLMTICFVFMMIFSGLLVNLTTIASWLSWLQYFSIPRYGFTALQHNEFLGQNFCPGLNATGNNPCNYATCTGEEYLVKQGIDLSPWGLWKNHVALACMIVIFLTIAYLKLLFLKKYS
UniProt P20813: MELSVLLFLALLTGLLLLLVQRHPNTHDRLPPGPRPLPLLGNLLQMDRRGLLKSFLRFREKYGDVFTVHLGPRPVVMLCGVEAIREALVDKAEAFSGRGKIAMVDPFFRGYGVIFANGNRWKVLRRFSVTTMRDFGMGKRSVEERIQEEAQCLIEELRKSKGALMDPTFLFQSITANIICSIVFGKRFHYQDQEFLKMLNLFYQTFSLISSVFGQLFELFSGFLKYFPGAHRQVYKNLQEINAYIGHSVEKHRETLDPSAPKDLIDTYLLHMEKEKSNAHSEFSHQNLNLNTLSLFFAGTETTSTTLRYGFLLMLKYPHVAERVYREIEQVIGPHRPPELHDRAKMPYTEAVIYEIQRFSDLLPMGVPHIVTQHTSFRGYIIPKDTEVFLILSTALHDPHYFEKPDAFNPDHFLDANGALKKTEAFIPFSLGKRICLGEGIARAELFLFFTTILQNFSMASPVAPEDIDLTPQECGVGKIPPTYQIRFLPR
UniProt P33261, whole entry, looked up: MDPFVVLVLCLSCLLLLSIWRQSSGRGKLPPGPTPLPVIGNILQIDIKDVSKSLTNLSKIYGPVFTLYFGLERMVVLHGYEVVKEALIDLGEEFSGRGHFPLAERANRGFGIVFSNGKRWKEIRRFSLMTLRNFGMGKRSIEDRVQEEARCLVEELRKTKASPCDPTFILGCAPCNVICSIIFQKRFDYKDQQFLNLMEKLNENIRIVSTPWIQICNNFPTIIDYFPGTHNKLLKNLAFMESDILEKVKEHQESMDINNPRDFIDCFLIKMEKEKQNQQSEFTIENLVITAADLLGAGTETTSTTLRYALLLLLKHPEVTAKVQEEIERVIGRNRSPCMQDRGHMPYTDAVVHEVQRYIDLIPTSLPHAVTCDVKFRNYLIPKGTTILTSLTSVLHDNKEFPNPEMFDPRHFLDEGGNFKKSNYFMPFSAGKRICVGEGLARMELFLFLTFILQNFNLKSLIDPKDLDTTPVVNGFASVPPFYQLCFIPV
UniProt P04406: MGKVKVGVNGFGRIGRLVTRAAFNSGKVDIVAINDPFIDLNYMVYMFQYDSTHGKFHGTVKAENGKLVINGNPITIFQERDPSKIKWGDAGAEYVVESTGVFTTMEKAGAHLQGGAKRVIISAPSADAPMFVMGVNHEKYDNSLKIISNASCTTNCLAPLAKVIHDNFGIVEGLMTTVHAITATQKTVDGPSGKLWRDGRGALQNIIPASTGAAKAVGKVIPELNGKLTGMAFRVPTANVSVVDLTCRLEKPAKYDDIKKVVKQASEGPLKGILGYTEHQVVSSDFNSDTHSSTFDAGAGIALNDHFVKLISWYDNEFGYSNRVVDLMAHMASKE

Experiments:
[1] = read-out: Cytochrome P450 3A4 (Homo sapiens) (UniProt P08684); assay: CLD_CYP3A4_6hr: CellzDirect (CLD) Gene Expression Assay for xenobiotic metabolism (CYP3A4) at 6 hours (AID 2283680)
Method in brief: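 Primary human hepatocytes (two donor preparations) dosed; CYP3A4 mRNA harvested at 6 h and quantified by qNPA chemiluminescence. Gain of signal fitted against 0.2% DMSO vehicle; cytotoxicity flagged by phase-contrast morphology.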

[2] = read-out: HMG-CoA synthase (HMGCS2), HMGCS2 (gene 3158); assay: CLD_HMGCS2_6hr: CellzDirect (CLD) Gene Expression Assay for HMG-CoA synthase (HMGCS2) at 6 hours (AID 2283682);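 note: actives raise HMGCS2 transcript above the 0.2% DMSO vehicle baseline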
Method in brief: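 Primary human hepatocytes dosed daily with fresh chemical, 0.2% DMSO vehicle; HMGCS2 mRNA measured at 6 h by qNPA chemiluminescence. Gain of signal fitted against DMSO; cytotoxicity flagged from phase-contrast morphology.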

[3] = read-out: xenobiotic metabolism (CYP1A2), CYP1A2 (gene 1544); assay: CLD_CYP1A2_24hr: CellzDirect (CLD) Gene Expression Assay for xenobiotic metabolism (CYP1A2) at 24 hours (AID 2283683)
Method in brief: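 Primary human hepatocytes from two donor preparations dosed daily with multiple concentrations of chemical, 0.2% DMSO vehicle. CYP1A2 mRNA at 24 h quantified by qNPA chemiluminescence; gain of signal analyzed relative to DMSO. Cytotoxicity flagged by phase-contrast morphology.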

[4] = read-out: ABC Transporter (ABCB1), ABCB1 (gene 5243); assay: CLD_ABCB1_24hr: CellzDirect (CLD) Gene Expression Assay for ABC Transporter (ABCB1) at 24 hours (AID 2283684);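 for AC50: potency for increase in ABCB1 mRNA relative to DMSO vehicle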
Method in brief: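 Primary human hepatocytes, two donor preparations, dosed daily with fresh solutions; vehicle 0.2% DMSO; harvested at 24 h. ABCB1 mRNA measured by quantitative nuclease protection assay (chemiluminescence); morphology-based cytotoxicity annotated.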

[5] = read-out: Broad substrate specificity ATP-binding cassette transporter ABCG2 (Homo sapiens) (UniProt Q9UNQ0); assay: CLD_ABCG2_24hr: CellzDirect (CLD) Gene Expression Assay for ABC Transporter (ABCG2) at 24 hours (AID 2283685)
Method in brief: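 Primary human hepatocytes were dosed daily with ToxCast chemicals at multiple concentrations (vehicle 0.2% DMSO). ABCG2 mRNA was measured at 24 h by qNPA chemiluminescence; induction was scored as gain of signal versus DMSO.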

[6] = read-out: Cytochrome P450 2B6 (Homo sapiens) (UniProt P20813); assay: CLD_CYP2B6_24hr: CellzDirect (CLD) Gene Expression Assay for xenobiotic metabolism (CYP2B6) at 24 hours (AID 2283686)
Method in brief: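 Primary human hepatocytes dosed daily for two days with fresh solutions, harvested at 24 hours; mRNA induction quantified by qNPA chemiluminescence, gain of signal vs 0.2% DMSO vehicle. Cytotoxicity annotated from phase-contrast morphology.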

[7] = read-out: Cytochrome P450 2C19 (Homo sapiens) (UniProt P33261); assay: CLD_CYP2C19_24hr: CellzDirect (CLD) Gene Expression Assay for xenobiotic metabolism (CYP1A2) at 24 hours (AID 2283687);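 note: activity means mRNA induction above DMSO vehicle baseline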
Method in brief: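 Primary human hepatocytes (two donor preparations) dosed daily with fresh test chemical in 0.2% DMSO vehicle; CYP2C19 mRNA induction measured at 24 h by quantitative nuclease protection assay with chemiluminescence, fitted for gain of signal versus DMSO.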

[8] = read-out: Cytochrome P450 3A4 (Homo sapiens) (UniProt P08684); assay: CLD_CYP3A4_24hr: CellzDirect (CLD) Gene Expression Assay for xenobiotic metabolism (CYP3A4) at 24 hours (AID 2283689)
Method in brief: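 Primary human hepatocytes from two donors dosed daily with fresh compound for two days, 0.2% DMSO vehicle. CYP3A4 mRNA at 24 hr by qNPA chemiluminescence; gain-of-signal fit versus DMSO, cytotoxicity flagged by morphology.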

[9] = read-out: organic anion transporter (SLCO1B1), SLCO1B1 (gene 10599); assay: CLD_SLCO1B1_24hr: CellzDirect (CLD) Gene Expression Assay for organic anion transporter (SLCO1B1) at 24 hours (AID 2283690)
Method in brief: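 Primary human hepatocytes (two donor preparations) dosed daily for two days with chemicals at multiple concentrations, 0.2% DMSO vehicle. SLCO1B1 mRNA at 24 h measured by qNPA chemiluminescence; induction fitted relative to DMSO.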

[10] = read-out: alkyl and aryl transferase (GSTA2), GSTA2 (gene 2939); assay: CLD_GSTA2_24hr: CellzDirect (CLD) Gene Expression Assay for alkyl and aryl transferase (GSTA2) at 24 hours (AID 2283693)
Method in brief: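 Primary human hepatocytes (two donor preparations) dosed daily for two days with chemicals at multiple concentrations (vehicle 0.2% DMSO); GSTA2 mRNA at 24 h measured by qNPA chemiluminescence, gain-of-signal versus DMSO.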

[11] = read-out: sulfotransferase (SULT2A), SULT2A1 (gene 6822); assay: CLD_SULT2A_24hr: CellzDirect (CLD) Gene Expression Assay for sulfotransferase (SULT2A) at 24 hours (AID 2283694);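 for AC50: potency for increased SULT2A1 mRNA level as induction over DMSO baseline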
Method in brief: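 Primary human hepatocytes from two donor preparations were dosed daily with fresh solutions, vehicle 0.2% DMSO. At 24 h, lysates went to quantitative nuclease protection (qNPA) with S1 digestion and chemiluminescent readout. Cytotoxicity was annotated from phase-contrast morphology.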

[12] = read-out: ABC Transporter (ABCB1), ABCB1 (gene 5243); assay: CLD_ABCB1_48hr: CellzDirect (CLD) Gene Expression Assay for ABC Transporter (ABCB1) at 48 hours (AID 2283695)
Method in brief: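 Primary human hepatocytes from two donor preparations dosed daily on two consecutive days with 0.2% DMSO vehicle. Harvest at 48 h. ABCB1 mRNA quantified by qNPA with chemiluminescence and fitted for gain of signal versus DMSO.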

[13] = read-out: glucuronosyltransferase (UGT1A1), UGT1A1 (gene 54658); assay: CLD_UGT1A1_24hr: CellzDirect (CLD) Gene Expression Assay for glucuronosyltransferase (UGT1A1) at 24 hours (AID 2283696)
Method in brief: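 Primary human hepatocytes from two donor preparations were dosed (0.2% DMSO vehicle) and harvested at 24 h; UGT1A1 mRNA induction was quantified by chemiluminescent qNPA, fitted as gain relative to DMSO.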

[14] = read-out: Cytochrome P450 3A4 (Homo sapiens) (UniProt P08684); assay: CLD_CYP3A4_48hr: CellzDirect (CLD) Gene Expression Assay for xenobiotic metabolism (CYP3A4) at 48 hours (AID 2283698)
Method in brief: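 Primary human hepatocytes from two donor preparations dosed daily for two days with multiple chemical concentrations, 0.2% DMSO vehicle. CYP3A4 mRNA at 48 h by quantitative nuclease protection assay, chemiluminescence, positive fit versus DMSO; cytotoxicity flagged morphologically.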

[15] = read-out: Cytochrome P450 2B6 (Homo sapiens) (UniProt P20813); assay: CLD_CYP2B6_48hr: CellzDirect (CLD) Gene Expression Assay for xenobiotic metabolism (CYP2B6) at 48 hours (AID 2283699);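 note: actives raise transcript level above DMSO so potency reflects induction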
Method in brief: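 Primary human hepatocytes dosed daily for two days over multiple concentrations, 0.2% DMSO vehicle; CYP2B6 mRNA quantified at 48 h by qNPA chemiluminescence. Induction fitted as gain of signal versus DMSO; cytotoxicity annotated by morphology.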

[16] = read-out: Glyceraldehyde-3-phosphate dehydrogenase (Homo sapiens) (UniProt P04406); assay: CLD_GAPDH_6hr: CellzDirect (CLD) Gene Expression Assay for Baseline Control (Glyceraldehyde 3-phosphate dehydrogenase) at 6 hours (AID 2283681);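 note: active means increased signal relative to DMSO vehicle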
Method in brief: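 Primary human hepatocytes from two donor preparations, dosed at multiple concentrations with 0.2% DMSO vehicle; GAPDH mRNA measured 6 h after dosing by chemiluminescent quantitative nuclease protection assay (qNPA) on denatured lysates. Serves as background control; cytotoxicity annotated by morphology.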

[17] = read-out: Glyceraldehyde-3-phosphate dehydrogenase (Homo sapiens) (UniProt P04406); assay: CLD_GAPDH_24hr: CellzDirect (CLD) Gene Expression Assay for Baseline Control (Glyceraldehyde 3-phosphate dehydrogenase) at 24 hours (AID 2283692)
Method in brief: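 Primary human hepatocytes (two donor preparations) dosed daily for two days, 0.2% DMSO vehicle; GAPDH mRNA measured at 24 h by qNPA chemiluminescence as a background control, gain-of-signal fitted against DMSO.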

[18] = read-out: ABC Transporter (ABCB11), ABCB11 (gene 8647); assay: CLD_ABCB11_48hr: CellzDirect (CLD) Gene Expression Assay for ABC Transporter (ABCB11) at 48 hours (AID 2283697)
Method in brief: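 Primary human hepatocytes from two donor preparations dosed daily for two days at multiple concentrations; 0.2% DMSO vehicle. ABCB11 mRNA at 48 h by quantitative nuclease protection assay, chemiluminescence; fitted for induction versus DMSO.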

[19] = read-out: Cytochrome P450 2C19 (Homo sapiens) (UniProt P33261); assay: CLD_CYP2C19_48hr: CellzDirect (CLD) Gene Expression Assay for xenobiotic metabolism (CYP1A2) at 48 hours (AID 2283700);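 note: fitted upward so actives raise CYP2C19 mRNA above the 0.2% DMSO vehicle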
Method in brief: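 Primary human hepatocytes (two donor preparations) dosed daily for two days, harvested at 48 h; CYP2C19 mRNA induction measured by qNPA chemiluminescence. Gain-of-signal fitted relative to 0.2% DMSO vehicle as baseline.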

[20] = CLD_ACTIN_48hr: CellzDirect (CLD) Gene Expression Assay for Baseline Control (Actin) at 48 hours (AID 2283702)
Method in brief: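 Primary human hepatocytes (two donor preparations) dosed daily for two days with ToxCast chemicals at multiple concentrations versus 0.2% DMSO vehicle; harvested at 48 h. Actin mRNA measured as a background control by quantitative nuclease protection assay with chemiluminescence.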

Measured: AC50

CC(C)OP(=S)(OC(C)C)SCCNS(=O)(=O)c1ccccc1
inactive: [1] | [2] | [4] | [5] | [7] | [9] | [10] | [11] | [12]
active: [1] 415 nM | [3] 14.5 µM and 3.34 µM and 5.55 µM | [4] 20000 nM | [6] 6.94 µM and 814 nM and 2.27 µM | [8] 9.47 µM and 1.9 µM | [11] 548 nM | [13] 10.1 µM and 1.9 µM and 1.99 µM | [14] 1900 nM | [15] 1.9 µM and 468 nM and 940 nM

O=C1C2CC=CCC2C(=O)N1SC(Cl)(Cl)C(Cl)Cl (centres undefined)
not listed: [7] | [10] | [13] | [14]
inactive: all other assays above
